scFv variants of Ab-14 (light chain) against a SARS-CoV-2 spike peptide

Data: MIT Lincoln Laboratory AlphaSeq set, Engelhart et al. 2022, doi:10.1038/s41597-022-01779-4, as distributed in FLAb.

Target peptide (SARS-CoV-2 spike, HR2 region): PDVDLGDISGINAS

Parent scFv Ab-14: VH joined to VL by three GGGGS repeats. Changes lie in the light chain CDRs alone.
VH: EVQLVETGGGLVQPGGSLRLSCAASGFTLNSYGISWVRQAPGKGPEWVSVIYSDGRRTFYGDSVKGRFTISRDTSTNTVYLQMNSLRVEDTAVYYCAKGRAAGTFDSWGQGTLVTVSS
VL: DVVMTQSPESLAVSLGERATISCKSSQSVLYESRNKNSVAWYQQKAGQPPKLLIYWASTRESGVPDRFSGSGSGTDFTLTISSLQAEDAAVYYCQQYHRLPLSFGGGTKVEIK

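Phage display of a naive human antibody library on the peptide gave the parent. AAYL50 was designed without a model: most single CDR substitutions and a random sample of double and triple ones. Affinity was read by AlphaSeq, a pooled yeast mating assay with surface-displayed partners. Binding brings cells together so that they mate, and sequencing counts the barcode pairs among the diploids. A regression on co-assayed BCL2-family reference pairs converts the normalised counts of each replicate to an apparent Kd. The assay was run in three technical replicates.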

Variants are written as CDR1, CDR2 and CDR3 of the light chain (limits as in the source). Parent: KSSQSVLYESRNKNSVA, WASTRES, QQYHRLPLS.
The read-out is the apparent dissociation constant on a log10 scale (nM): the lower, the stronger.
An entry "ND" has no value in the source: the pair was not observed among the diploids in that replicate. This suggests poor binding but is not conclusive.

| CDR-L1 | CDR-L2 | CDR-L3 | replicates, log10 nM | empty controls |
|---|---|---|---|---|
| KSSQSVLYESRNKNSVA | WASTRES | HQYHRRPLS | ND ND ND | 1 of 9 (4.66) |
| KSSQSVLYESRNLNSVA | WASTRES | QQYCRLPGS | 0.70 1.02 0.91 | 1 of 9 (3.40) |
| KSSQSVLYESREKNSPA | WASTRES | QQYRRLPLS | 5.38 5.00 ND | 1 of 9 (4.24) |
| KSSQSVLYESRNNNSVA | WAKTREM | QQYHRLPLS | 1.09 1.28 1.33 | 0 of 9 |
| KSSQSVLYESRNKNSEA | WASTRES | QQYRRLPLP | ND ND ND | 1 of 9 (3.71) |
| KSSQSVLYESRNKNSVA | HASNREN | QQYHRLPLS | 5.46 2.45 ND | 2 of 9 (4.86) |
| KSSQSFLYESKNKNAVA | WASTRES | QQYHRLPLS | 0.13 0.52 0.45 | 1 of 9 (3.59) |
| MSSASVYYESRNKNSVA | WASTRES | QQYHRLPLS | 1.84 1.96 1.96 | 0 of 9 |
| KSSQSVLYESRNKNSVA | FASTRES | WQYHRLPLS | ND 4.50 ND | 2 of 9 (4.18) |
| FSSASVLYESRNPNSVA | WASTRES | QQYHRLPLS | 2.49 2.27 2.82 | 1 of 9 (4.54) |
| KSSQSVLYESRNKNSVA | QASTRES | QQYHRLYLP | ND ND ND | 0 of 9 |
| KLSQSVLYESRNTNSVA | WASTRES | CQYHRLPLS | 0.97 1.35 1.54 | 0 of 9 |
| KSSQSVDYESRVKNSVA | WASTNES | QQYHRLPLS | 4.21 ND ND | 1 of 9 (4.19) |
| KSSQSVAYESRNKNSVA | WASTRES | QQYHRAHLS | ND ND ND | 0 of 9 |
| KSSQLVLMESRNKNSVA | NASTRES | QQYHRLPLS | 0.00 0.31 0.11 | 2 of 9 (3.55) |
| KSSQSVLYESRNKNSVA | WASKRES | QQYHYVPLS | ND ND ND | 2 of 9 (4.70) |
| KSSQSVSYESRNKMSVA | WASTQES | QQYHRLPLS | ND ND 4.27 | 3 of 9 (3.70) |
| KSSQSWLYESRNKNQVA | WASTYES | QQYHRLPLS | ND ND ND | 0 of 9 |
| KSSQSVLYESRNKNSEA | WASTREW | QQYHRLPDS | 3.24 ND ND | 0 of 9 |
| KSSQSVLYESRNKNSVA | WASTRES | GQYHRLPLS | 2.62 2.50 2.56 | 0 of 9 |
| KSSQSVLYESRNKNSVD | WASTRTS | QQYHRLPLR | ND ND ND | 0 of 9 |
| KSSQSVLYESRPKNSVA | WASTCED | QQYHRLPLS | 4.57 ND ND | 4 of 9 (3.95) |
| KSTQSVLYESRNKNSVA | QASTRES | QQYHRLPLW | 0.07 0.38 0.24 | 9 of 9 (5.39) |
| KSSQSTLYESRNKNSVE | WASTRES | QQYHLLPLS | ND ND ND | 0 of 9 |
| KSSQSVLYESRNKNSVA | WKPMRES | QQYHRLPLS | ND ND ND | 1 of 9 (3.88) |
| KSMQSVLYESRNKNSVA | WASTRES | VQYHRLPLS | 1.41 1.84 1.46 | 0 of 9 |
| KSSQSVLYESRNKRSVA | WASTNEF | QQYHRLPLS | ND ND ND | 1 of 9 (2.83) |
| KDSQESLYESRNKNSVA | WASTRES | QQYHRLPLS | 1.16 1.12 0.90 | 0 of 9 |
| KSSQSVLYEIRNSQSVA | WASTRES | QQYHRLPLS | 3.01 2.80 2.88 | 6 of 9 (4.64) |
| KGSSSVLYESRNKNSVL | WASTRES | QQYHRLPLS | ND ND ND | 1 of 9 (3.64) |
| KSSQSVLYEMRMKNSVA | WISTRES | QQYHRLPLS | ND 3.34 ND | 0 of 9 |
| FSSQSVLPESRNKNHVA | WASTRES | QQYHRLPLS | 1.97 1.77 2.08 | 3 of 9 (4.45) |
| KSSQSVLYESRNKNSVA | WASTYES | QKYHRSPLS | ND ND ND | 2 of 9 (3.91) |
| VSSQSVLYESRLKNSVA | WASRRES | QQYHRLPLS | 3.34 2.64 3.16 | 3 of 9 (3.41) |
| KSSQSVLYESRQKNSVA | WASTRSS | QDYHRLPLS | 1.34 1.50 1.57 | 4 of 9 (4.49) |
| KSSQSVLYESRNRNSVA | AAQTRES | QQYHRLPLS | 0.49 0.67 0.47 | 1 of 9 (5.78) |
| KSSQSVLYESRNKNSVA | WASTRES | QQYMRLPLG | 1.16 1.38 1.39 | 1 of 9 (4.19) |
| KSSQSVLYEIRNKNSVA | WAATRES | QYYHRLPLS | ND 4.56 ND | 0 of 9 |
| KSKQSVLYNSRNKNSVA | WASTRES | QQYHRLPLS | 1.05 1.25 1.05 | 2 of 9 (4.03) |

Extract of 6 entries:

CDR-L1,CDR-L2,CDR-L3,"replicates, log10 nM",empty controls
KDSQESLYESRNKNSVA,WASTRES,QQYHRLPLS,1.16 1.12 0.90,0 of 9
MSSASVYYESRNKNSVA,WASTRES,QQYHRLPLS,1.84 1.96 1.96,0 of 9
KSSQSVLYESREKNSPA,WASTRES,QQYRRLPLS,5.38 5.00 ND,1 of 9 (4.24)
KSSQSVLYESRNKNSEA,WASTREW,QQYHRLPDS,3.24 ND ND,0 of 9
KLSQSVLYESRNTNSVA,WASTRES,CQYHRLPLS,0.97 1.35 1.54,0 of 9
KSMQSVLYESRNKNSVA,WASTRES,VQYHRLPLS,1.41 1.84 1.46,0 of 9

As a blank, each scFv also met three strains without target: over library AAYL50, 18% of these pairings were detected, typically at 4.19 and seldom below 2.99. For each scFv, signals with the empty controls are counted beside the result, with their mean in brackets.
In this assay the parent's reference entry averaged 0.65; its copy inside this library read 1.68.